pKi: −log10 of the molar value.
How the values were obtained:
Bcl-2-like protein 1 = Bcl-2-like protein 1 (Homo sapiens, UniProt Q07817); assay: Inhibition of F-Bak (GQVGRQLAIIGDK(6-FAM)INR-amide probe binding to BCL-xl (unknown origin) incubated for 1 hr by TR-FRET assay
[1] = target: Apoptosis regulator Bcl-2 (Homo sapiens, UniProt P10415); assay: Inhibition of F-Bak (GQVGRQLAIIGDK(6-FAM)INR-amide) F-Bak(GQVGRQLAIIGDK(6-FAM)INR-amide) binding to BCL2 (unknown origin) incubated for 1 hr by TR-FRET assay

Protein sequences, listed by entry. Tags and fused reporters are not part of them.
UniProt Q07817, whole entry: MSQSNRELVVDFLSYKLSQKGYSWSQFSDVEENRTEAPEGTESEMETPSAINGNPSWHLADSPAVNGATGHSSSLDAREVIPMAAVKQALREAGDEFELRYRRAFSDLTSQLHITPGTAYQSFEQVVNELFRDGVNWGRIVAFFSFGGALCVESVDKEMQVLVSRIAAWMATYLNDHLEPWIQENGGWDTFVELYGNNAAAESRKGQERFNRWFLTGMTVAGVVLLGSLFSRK
UniProt P10415, whole entry: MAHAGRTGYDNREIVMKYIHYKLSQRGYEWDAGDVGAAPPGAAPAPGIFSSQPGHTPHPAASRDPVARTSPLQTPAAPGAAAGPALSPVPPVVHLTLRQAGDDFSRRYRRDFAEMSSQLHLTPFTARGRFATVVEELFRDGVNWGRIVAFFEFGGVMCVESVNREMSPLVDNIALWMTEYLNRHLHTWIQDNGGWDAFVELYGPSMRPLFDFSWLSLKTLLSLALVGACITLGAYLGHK

| Compound | pKi (Bcl-2-like protein 1) | pKi [1] |
| --- | --- | --- |
| O=C(Nc1nc2ccccc2s1)c1cccc2c1CN(c1ccc(-c3ccn(Cc4ccccc4)c3)c(C(=O)O)n1)CC2 | 9.48 | – |
| Cc1c(-c2ccc(N3CCc4cccc(C(=O)Nc5nc6ccccc6s5)c4C3)nc2C(=O)O)cnn1CC1CCCCC1 | 11.10 | 7.55 |

From ChEMBL document CHEMBL4725425, “Discovery of A-1331852, a First-in-Class, Potent, and Orally-Bioavailable BCL-X Inhibitor” (ACS Med Chem Lett, 2020)
